Laboratory results as given in patent US20180030537A1, “PUMA, A PRO-APOPTOTIC GENE, AS A NOVEL MOLECULAR BIOMARKER FOR TNFALPHA-INDUCED HUMAN ISLET DAMAGE” (CITY OF HOPE, priority 2010, published 2018).

System: human islets
Experiment: Preproinsulin precursor mRNA synthesis and total insulin release of single human islets
Assay type: cell-based
Protocol: FIGS. 3A-D. TNF-α, but not IFNγ, impairs glucose induced preproinsulin precursor mRNA in human islets. FIG. 3A) Insulin content of medium supernatant from a single human islet culture in hextuplicate during 16 hours in low- or high-glucose media with or without 50 ng/ml TNF-α was measured. FIG. 3B) The glucose induced newly synthesized preproinsulin precursor mRNA measured by pre-spliced preproinsulin mRNA normalized by pre- and post-spliced preproinsulin mRNA (% exon) in the corresponding islets with or without 50 ng/ml. TNF-α was also examined (n=3, *p<0.05). FIG. 3C) Glucose induced preproinsululin precursor mRNA synthesis with or without TNF-α (1, 5 and 50 ng/ml) and/or IFNγ (10, 100 and 1000 U/ml) from a single human islet in hextuplicate. FIG. 3D) Correlation between PUMA mRNA and INS precursor mRNA levels in islets cultured in high-glucose media treated with TNF-α (1, 5 and 50 ng/ml), IFN-γ (10, 100 and 1000 U/ml) or a combination of both for 16 hours. The data points are from a total of 53 single islets (r=−0.45, p<0.001). All data are presented as a mean±standard error.
Hand picked human islets were cultured with 100 uL of RPMI 1640 medium containing 5% fetal bovine serum and either low-glucose (3.3 mmol/L) or high-glucose (17 mmol/L) for 16 hours. Preproinsulin mRNA synthesis was measured from the islets by the methods described above. Pre-spliced preproinsulin mRNA (preproinsulin precursor mRNA) was normalized by pre- and post-spliced preproinsulin mRNA as described previously (32). Specifically, primer pairs used to perform qRT-PCR of pre-spliced preproinsulin mRNA are as follows: AGGTGGGCTCAGGATTCCA (SEQ ID NO. 1) (In1 upstream) and TCACCCCCACATGCTTCAC (SEQ ID NO. 2) (In1 downstream); […] (SEQ ID NO. 3) (In2 upstream) and […] (SEQ ID NO. 4) (In2 downstream); CTCTGCCTCGCCGCTGTTC (SEQ ID NO. 5) (In2Ex3 upstream) and […] (SEQ ID NO. 6) (In2Ex3 downstream); […] (SEQ ID NO. 7) (Ex2a upstream) and […] (SEQ ID NO. 8) (Ex2a downstream); […] (SEQ ID NO. 9) (Ex2b upstream) and CCACAATGCCACGCTTCTG (SEQ ID NO. 10) (Ex2b downstream); and […] […]

TNF-α: recombinant human (or rat, for INS-1) TNF-α, R&D Systems; cytokine stimulus
insulin release (50 ng/mL, low or high glucose medium, 16-hour culture, FIG. 3A): did not change insulin release levels
glucose-induced preproinsulin precursor mRNA synthesis (16 hours, high glucose, TNF-α 50 ng/mL, IFNγ 10-1000 U/ml, FIG. 3B, 3C): totally abolished
concentration abrogating the preproinsulin precursor mRNA synthesis response to high glucose (16 hours, FIG. 3C): 5 ng/mL
